The assay concerns the target T1, neuropeptide Y Y2 receptor (Homo sapiens, UniProt P49146).
T1 construct: endogenous in cells; host or cells: SMS-KAN human neuroblastoma cells (whole cells; gift of Dr Thue Schwartz)
Briefly: Competition with radiolabelled peptide YY for binding to SMS-KAN cells.

Amino acid sequences for entries named in this document (tags omitted).
UniProt P49146, whole entry: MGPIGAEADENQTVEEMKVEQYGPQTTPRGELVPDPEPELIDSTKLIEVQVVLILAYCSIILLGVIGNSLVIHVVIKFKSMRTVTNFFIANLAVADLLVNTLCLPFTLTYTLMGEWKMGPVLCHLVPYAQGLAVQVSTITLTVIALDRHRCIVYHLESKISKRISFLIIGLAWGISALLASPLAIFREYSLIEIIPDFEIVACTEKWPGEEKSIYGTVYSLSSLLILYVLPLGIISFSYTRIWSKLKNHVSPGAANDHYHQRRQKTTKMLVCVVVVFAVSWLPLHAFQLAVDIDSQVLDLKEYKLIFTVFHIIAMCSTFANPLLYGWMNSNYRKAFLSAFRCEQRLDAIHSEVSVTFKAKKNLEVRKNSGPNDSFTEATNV

As for neuropeptide Y-(13-32), the “binding to Y2 receptor on SMS-KAN cells, in words” value was “little binding”.

(Values after patent publication US5696093A (CRC for Biopharmaceutical Research Pty Limited, priority 1994, dated 1997).)
